Measured values published in patent US8415356B2, “Isoquinolinone derivatives as NK3 antagonists” (H. Lundbeck A/S, priority 2008, dated 2013).

By UniProt entry, the sequences of proteins in these tests, tags left out.
UniProt P29371, whole entry: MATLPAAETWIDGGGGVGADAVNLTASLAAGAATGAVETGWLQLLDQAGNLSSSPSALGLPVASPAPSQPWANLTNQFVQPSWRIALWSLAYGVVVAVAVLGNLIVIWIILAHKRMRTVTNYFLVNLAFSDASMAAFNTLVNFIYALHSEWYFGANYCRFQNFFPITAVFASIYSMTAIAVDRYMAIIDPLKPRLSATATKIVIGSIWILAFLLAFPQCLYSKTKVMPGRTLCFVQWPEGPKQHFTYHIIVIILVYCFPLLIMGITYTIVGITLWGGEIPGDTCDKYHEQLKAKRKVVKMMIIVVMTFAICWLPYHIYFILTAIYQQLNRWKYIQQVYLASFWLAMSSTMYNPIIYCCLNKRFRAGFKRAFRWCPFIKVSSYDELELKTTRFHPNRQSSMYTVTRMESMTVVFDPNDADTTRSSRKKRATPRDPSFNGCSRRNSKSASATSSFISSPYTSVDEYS

Target: T1, human NK3 receptor (Homo sapiens, UniProt P29371)
T1 construct: expressed in transfected cells; membranes prepared from them
Assay: NK3 receptor efficacy and potency assay (FLIPR Calcium 4)
Assay type: cell-based
Conditions: BHK cells expressing human NK3 receptor, calcium fluorescence
Description: BHK cells stably expressing the human NK3 receptor were seeded in 100 μl media in black walled clear-base 96-wells plates (Costar) aiming at a confluency of 95-100% at the day of assay. The assay was performed according to the FLIPR Calcium 4 Assay kit (Molecular Devices). At the day of the assay, the media was removed and the cells were washed once with the HBSS buffer (Hanks BSS buffer, pH 7.4 containing 20 mM Hepes) before 100 μl of a solution of the calcium assay reagent dissolved in the HBSS buffer containing 2.5 mM probinicid was added to the cells. The plates were incubated for 60 min at 34° C., 10% CO2 before use in the FLIPR for examination of fluorescence.
For efficacy and potency evaluation of compounds, these were diluted in HBSS buffer prior to test. For test of agonist activity, 25 μl of the diluted compound solution was added and the plate was analyzed for 5 minutes in the FLIPR. […] The plates were subsequently analyzed for 5 minutes before the assay was terminated. The maximal increase in fluorescence over background following each ligand addition was determined.

EC85 concentration of NKB: ~4 nM
Substance: neurokinin B [NKB]
